In the assay the target is P2X purinoceptor 7 (Homo sapiens, UniProt Q99572). The assay is described as follows: P2X7 FLIPR Assay. The conditions noted are these: pH 7.4. On the procedure: 1321N1 cells expressing the recombinant human or rat P2X7 channel was cultured in HyQ DME/(HyClone/Dulbecco's Modified Eagle Medium) high glucose supplemented with 10% Fetal Bovine Serum (FBS) and appropriate selection marker. Cells were seeded at a density of 25000 cells/well (96-well clear bottom black walled plates) in 100 μl volume/well. On the day of the experiment, cell plates were washed with assay buffer, containing (in mM): 130 NaCl, 2 KCl, 1 CaCl2, 1 MgCl2, 10 HEPES, 5 glucose; pH 7.40 and 300 mOs. After the wash, cells were loaded with the Calcium-4 dye (Molecular Device) and incubated in the dark for 60 minutes. Test compounds were prepared at 250× the test concentration in neat DMSO. Intermediate 96-well compound plates were prepared by transferring 1.2 μL of the compound into 300 μL of assay buffer. A further 3× dilution occurred when transferring 50 μL/well of the compound plate to 100 μL/well in the cell plate. Cells were incubated with test compounds and dye for 30 minutes. […] The fluorescence change was measured 180 seconds after adding the agonist. Peak fluorescence was plotted as a function of BzATP concentration using Origin 7 software.

The chains behind the UniProt entries cited, without tags or fusion partners. Where a name states a change or a piece, a line headed by the entry shows the natural chain unless it says otherwise.
UniProt Q99572: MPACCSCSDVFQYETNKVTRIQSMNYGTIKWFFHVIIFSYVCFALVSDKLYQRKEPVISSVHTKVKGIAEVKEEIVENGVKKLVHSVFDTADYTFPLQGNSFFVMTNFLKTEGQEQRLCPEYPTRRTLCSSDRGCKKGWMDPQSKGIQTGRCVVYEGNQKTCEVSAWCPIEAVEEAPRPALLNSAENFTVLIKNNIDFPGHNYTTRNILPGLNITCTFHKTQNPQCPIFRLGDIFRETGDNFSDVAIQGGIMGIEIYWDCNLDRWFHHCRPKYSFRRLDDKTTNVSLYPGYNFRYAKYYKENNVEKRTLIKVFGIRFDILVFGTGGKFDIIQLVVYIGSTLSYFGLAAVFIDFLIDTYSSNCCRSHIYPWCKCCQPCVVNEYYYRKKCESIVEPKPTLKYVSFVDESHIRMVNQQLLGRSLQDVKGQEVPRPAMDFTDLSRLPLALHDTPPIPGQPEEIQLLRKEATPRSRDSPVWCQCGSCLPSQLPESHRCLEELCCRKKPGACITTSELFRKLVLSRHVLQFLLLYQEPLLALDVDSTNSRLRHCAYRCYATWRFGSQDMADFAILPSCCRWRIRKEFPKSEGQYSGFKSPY

As a reminder, the IC50 is the concentration that gives 50% inhibition. As for `CC[C@H]1CNC(=S)C(=O)N1Cc1cccc(C(F)(F)F)c1Cl` [US10053463, 6], the half-inhibitory concentration (IC50) worked out at 3.45 µM. This lies in the single-digit micromolar range.

The values are drawn from BindingDB's records for patent US10053463 (Janssen Pharmaceutica NV, 2018).
